Source: paper PMC11020753, “Contribution of amino acids in the active site of dipeptidyl peptidase 4 to the catalytic action of the enzyme” (PLOS ONE, 2024)
Like-named read-outs stand apart in the source and are kept apart here.

Protein sequences, listed by entry. Tags and fused reporters are not part of them. Residues count along the entry.
UniProt P27487, 37-766 E205A: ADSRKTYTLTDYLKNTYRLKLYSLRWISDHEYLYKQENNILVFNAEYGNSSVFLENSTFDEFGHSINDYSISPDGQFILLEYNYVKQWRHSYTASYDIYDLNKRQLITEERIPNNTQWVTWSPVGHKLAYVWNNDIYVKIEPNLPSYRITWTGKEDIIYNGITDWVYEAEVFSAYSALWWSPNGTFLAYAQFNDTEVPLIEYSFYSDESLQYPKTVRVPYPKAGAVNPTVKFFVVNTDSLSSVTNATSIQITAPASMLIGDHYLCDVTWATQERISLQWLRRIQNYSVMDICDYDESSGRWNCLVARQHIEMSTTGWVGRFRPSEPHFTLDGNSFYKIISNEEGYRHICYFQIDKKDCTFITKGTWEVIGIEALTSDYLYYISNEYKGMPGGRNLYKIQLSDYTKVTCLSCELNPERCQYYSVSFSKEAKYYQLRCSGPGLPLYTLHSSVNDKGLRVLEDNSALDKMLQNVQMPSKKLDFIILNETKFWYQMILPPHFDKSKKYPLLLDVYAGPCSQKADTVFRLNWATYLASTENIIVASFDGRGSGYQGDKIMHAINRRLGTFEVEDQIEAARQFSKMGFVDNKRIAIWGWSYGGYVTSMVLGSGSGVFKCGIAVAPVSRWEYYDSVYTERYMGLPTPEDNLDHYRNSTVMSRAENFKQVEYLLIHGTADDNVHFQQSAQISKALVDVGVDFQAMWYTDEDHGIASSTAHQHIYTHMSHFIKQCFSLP
UniProt P27487, 37-766 R125A: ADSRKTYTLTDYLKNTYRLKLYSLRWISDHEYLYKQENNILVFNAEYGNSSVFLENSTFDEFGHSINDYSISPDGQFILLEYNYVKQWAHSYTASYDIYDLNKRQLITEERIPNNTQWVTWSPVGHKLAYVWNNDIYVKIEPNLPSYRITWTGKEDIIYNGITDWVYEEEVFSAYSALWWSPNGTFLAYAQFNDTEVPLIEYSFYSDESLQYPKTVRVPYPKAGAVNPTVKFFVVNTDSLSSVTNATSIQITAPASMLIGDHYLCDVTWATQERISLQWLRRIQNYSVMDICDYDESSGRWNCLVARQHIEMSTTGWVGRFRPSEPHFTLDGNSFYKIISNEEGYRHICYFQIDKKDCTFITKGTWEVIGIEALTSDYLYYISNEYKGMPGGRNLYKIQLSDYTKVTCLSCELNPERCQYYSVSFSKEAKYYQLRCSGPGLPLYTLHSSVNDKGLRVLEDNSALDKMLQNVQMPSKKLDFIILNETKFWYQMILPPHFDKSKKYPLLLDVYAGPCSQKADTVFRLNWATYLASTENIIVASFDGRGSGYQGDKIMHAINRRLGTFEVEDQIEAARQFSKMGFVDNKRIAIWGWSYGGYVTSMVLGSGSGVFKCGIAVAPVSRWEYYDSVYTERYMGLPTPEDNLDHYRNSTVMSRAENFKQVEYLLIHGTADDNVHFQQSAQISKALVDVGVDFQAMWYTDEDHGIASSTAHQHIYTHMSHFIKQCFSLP
UniProt P27487, 37-766 R125K: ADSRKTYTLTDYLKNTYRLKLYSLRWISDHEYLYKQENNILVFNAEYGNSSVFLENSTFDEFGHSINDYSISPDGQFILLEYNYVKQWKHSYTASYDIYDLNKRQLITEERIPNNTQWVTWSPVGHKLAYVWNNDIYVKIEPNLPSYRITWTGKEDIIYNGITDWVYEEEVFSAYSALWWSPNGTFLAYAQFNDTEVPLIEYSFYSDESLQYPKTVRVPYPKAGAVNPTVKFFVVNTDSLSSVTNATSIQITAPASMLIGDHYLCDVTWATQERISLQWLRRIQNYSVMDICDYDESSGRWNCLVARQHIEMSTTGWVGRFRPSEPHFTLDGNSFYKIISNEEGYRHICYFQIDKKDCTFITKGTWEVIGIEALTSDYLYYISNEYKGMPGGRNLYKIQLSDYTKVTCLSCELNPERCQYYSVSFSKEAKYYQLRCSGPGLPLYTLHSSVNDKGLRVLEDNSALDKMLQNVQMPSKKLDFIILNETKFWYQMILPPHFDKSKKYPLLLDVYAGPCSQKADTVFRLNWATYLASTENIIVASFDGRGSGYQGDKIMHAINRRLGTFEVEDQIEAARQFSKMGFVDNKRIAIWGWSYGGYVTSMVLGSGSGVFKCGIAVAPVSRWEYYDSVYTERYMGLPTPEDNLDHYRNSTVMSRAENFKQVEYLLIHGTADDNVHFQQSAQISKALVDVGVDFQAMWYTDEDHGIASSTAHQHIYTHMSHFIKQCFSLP
UniProt P27487, 37-766: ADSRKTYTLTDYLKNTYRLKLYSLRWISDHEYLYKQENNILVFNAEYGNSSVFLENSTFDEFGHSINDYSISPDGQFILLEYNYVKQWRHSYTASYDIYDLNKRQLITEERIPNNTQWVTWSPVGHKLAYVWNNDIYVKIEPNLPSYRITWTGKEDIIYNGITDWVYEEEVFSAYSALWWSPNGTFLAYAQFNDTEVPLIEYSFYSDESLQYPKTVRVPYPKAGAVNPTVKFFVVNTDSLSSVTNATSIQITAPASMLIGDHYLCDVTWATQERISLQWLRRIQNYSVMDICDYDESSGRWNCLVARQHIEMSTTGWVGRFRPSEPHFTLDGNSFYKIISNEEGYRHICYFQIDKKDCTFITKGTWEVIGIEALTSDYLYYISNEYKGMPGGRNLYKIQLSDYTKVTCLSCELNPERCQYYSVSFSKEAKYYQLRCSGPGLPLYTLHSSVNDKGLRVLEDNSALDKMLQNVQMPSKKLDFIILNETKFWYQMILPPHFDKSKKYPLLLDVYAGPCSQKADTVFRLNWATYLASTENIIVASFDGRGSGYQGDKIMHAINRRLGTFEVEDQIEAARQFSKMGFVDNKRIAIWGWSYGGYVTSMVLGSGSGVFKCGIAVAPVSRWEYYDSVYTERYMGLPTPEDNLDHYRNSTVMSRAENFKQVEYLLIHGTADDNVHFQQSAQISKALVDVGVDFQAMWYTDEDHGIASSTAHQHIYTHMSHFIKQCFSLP
UniProt P27487, 37-766 N710D: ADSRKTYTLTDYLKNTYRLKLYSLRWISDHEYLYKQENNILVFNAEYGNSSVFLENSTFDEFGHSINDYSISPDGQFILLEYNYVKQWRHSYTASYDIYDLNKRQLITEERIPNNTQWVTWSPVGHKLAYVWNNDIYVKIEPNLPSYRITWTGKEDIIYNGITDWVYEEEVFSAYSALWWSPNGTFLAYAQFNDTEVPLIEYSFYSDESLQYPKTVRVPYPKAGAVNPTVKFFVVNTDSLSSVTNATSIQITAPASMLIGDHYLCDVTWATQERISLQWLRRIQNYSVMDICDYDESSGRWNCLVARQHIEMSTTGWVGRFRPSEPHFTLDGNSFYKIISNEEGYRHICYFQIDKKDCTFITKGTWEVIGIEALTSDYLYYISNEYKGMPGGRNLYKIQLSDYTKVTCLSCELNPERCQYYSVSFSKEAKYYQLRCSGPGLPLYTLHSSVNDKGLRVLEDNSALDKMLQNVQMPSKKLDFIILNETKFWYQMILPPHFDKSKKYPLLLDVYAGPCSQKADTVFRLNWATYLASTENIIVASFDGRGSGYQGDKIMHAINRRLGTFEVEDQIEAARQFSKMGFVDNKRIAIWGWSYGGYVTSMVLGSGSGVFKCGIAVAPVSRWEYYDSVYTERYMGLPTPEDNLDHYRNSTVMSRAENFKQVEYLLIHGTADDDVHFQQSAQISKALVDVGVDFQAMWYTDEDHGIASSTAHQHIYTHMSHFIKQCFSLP
UniProt P27487, 37-766 E206A: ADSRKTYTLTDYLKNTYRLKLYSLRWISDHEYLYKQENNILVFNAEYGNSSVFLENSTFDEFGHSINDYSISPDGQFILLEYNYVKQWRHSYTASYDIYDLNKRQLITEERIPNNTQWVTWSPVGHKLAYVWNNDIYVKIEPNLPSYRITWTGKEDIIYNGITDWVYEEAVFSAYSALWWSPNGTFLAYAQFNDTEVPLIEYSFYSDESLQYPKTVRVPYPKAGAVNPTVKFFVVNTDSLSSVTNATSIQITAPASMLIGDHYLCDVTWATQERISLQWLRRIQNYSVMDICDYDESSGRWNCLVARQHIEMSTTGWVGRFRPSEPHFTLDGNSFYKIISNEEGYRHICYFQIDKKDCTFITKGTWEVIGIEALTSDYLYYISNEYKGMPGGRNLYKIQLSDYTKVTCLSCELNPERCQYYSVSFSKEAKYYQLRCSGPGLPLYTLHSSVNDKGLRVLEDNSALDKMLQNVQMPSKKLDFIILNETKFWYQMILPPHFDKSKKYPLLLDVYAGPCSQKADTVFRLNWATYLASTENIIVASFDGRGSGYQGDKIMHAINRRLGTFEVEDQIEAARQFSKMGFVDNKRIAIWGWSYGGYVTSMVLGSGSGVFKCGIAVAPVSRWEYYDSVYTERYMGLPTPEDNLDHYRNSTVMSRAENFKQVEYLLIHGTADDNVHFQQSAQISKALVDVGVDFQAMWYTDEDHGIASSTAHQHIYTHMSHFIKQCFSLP
UniProt P27487, 37-766 N710A: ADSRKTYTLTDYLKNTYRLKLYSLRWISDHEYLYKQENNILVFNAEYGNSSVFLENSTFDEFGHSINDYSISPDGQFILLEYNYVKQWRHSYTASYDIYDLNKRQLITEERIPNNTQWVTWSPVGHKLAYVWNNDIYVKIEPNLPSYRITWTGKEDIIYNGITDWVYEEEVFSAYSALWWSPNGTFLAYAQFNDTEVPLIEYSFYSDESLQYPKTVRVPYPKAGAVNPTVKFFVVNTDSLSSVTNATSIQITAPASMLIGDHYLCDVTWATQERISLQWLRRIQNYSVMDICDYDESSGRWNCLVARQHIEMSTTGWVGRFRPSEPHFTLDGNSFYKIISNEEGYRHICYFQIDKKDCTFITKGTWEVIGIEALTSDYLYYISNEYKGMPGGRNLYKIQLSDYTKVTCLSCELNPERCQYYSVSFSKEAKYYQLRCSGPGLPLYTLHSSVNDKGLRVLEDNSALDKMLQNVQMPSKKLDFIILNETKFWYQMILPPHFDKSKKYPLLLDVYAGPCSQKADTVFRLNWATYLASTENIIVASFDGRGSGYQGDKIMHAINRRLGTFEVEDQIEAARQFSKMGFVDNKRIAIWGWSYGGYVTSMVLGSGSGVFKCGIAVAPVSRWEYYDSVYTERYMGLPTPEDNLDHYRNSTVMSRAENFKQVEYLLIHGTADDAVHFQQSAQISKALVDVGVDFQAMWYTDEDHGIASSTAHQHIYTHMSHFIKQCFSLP
UniProt P27487, 37-766 N710Q: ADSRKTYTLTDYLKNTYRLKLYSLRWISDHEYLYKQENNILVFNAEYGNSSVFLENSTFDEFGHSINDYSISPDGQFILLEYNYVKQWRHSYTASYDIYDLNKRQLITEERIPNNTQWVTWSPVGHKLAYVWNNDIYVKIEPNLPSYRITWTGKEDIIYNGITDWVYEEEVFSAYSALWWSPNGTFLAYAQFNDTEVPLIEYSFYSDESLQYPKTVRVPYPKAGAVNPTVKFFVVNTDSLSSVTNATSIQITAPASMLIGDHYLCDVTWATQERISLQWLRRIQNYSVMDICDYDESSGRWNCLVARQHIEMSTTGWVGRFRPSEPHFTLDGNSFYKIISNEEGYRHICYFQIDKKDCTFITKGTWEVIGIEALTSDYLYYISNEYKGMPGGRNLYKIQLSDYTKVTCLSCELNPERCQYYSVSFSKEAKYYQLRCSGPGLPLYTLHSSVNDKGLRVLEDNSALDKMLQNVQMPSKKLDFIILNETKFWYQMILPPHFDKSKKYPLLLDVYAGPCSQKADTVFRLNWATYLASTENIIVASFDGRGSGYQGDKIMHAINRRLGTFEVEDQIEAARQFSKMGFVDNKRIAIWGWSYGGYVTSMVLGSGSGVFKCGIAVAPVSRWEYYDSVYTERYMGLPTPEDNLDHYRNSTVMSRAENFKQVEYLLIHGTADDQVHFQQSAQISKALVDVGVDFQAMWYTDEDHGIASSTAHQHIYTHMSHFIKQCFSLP

Columns and labels:
Assay in all cases: IC50 determination with substrate Gly-Pro-AMC
Format in all cases: biochemical
DP4 variant E205A = biological target: T1, DP4 variant E205A (Homo sapiens, UniProt P27487, E205A)
T1 construct: His(6)-37-766 hDP4 containing fractions were concentrated to 1 ml as described above; His6 (N); made in house; host or cells: Pichia pastoris X-33, vector pPICZα C (secreted)
Experimental: (§1) The reactions were performed in 100 mM HEPES buffer, pH 7.6 at 30°C in a total assay volume of 270 μl by using 96-well plates. […] Fluorescence was detected with a […]luor Plus (TECAN) at an excitation wavelength of 380 nm and an emission wavelength of 465 nm.

DP4 variant R125A = biological target: T2, DP4 variant R125A (Homo sapiens, UniProt P27487, R125A)
T2 construct: His(6)-37-766 hDP4 containing fractions were concentrated to 1 ml; made in house; host or cells: Pichia pastoris X-33 (vector pPICZα C, secreted)
Experimental: as §1

DP4 variant R125K = biological target: T3, DP4 variant R125K (Homo sapiens, UniProt P27487, R125K)
T3 construct: His(6)-37-766 hDP4 containing fractions were concentrated to 1 ml; made in house; host or cells: Pichia pastoris X-33 (vector pPICZα C, secreted)
Experimental: as §1

wild type DP4 = biological target: T4, wild type DP4 (Homo sapiens, UniProt P27487)
T4 construct: His(6)-37-766 hDP4 containing fractions were concentrated to 1 ml; made in house; host or cells: Pichia pastoris X-33 (vector pPICZα C, secreted)
Experimental: as §1

DP4 variant N710D = biological target: T5, DP4 variant N710D (Homo sapiens, UniProt P27487, N710D)
T5 construct: His(6)-37-766 hDP4 containing fractions were concentrated to 1 ml; made in house; host or cells: Pichia pastoris X-33 (vector pPICZα C, secreted)
Experimental: as §1

DP4 variant E206A = biological target: T6, DP4 variant E206A (Homo sapiens, UniProt P27487, E206A)
T6 construct: His(6)-37-766 hDP4 containing fractions were concentrated to 1 ml as described above; His6 (N); made in house; host or cells: Pichia pastoris X-33, vector pPICZα C (secreted)
Experimental: as §1

DP4 variant N710A = biological target: T7, DP4 variant N710A (Homo sapiens, UniProt P27487, N710A)
T7 construct: His(6)-37-766 hDP4 containing fractions were concentrated to 1 ml; made in house; host or cells: Pichia pastoris X-33 (vector pPICZα C, secreted)
Experimental: as §1

DP4 variant N710Q = biological target: T8, DP4 variant N710Q (Homo sapiens, UniProt P27487, N710Q)
T8 construct: His(6)-37-766 hDP4 containing fractions were concentrated to 1 ml; made in house; host or cells: Pichia pastoris X-33 (vector pPICZα C, secreted)
Experimental: as §1

SMILES	IC50 (DP4 variant E205A) [µM]	IC50 (DP4 variant R125A) [µM]	IC50 (DP4 variant R125K) [µM]	IC50 (wild type DP4) [µM]	IC50 (DP4 variant N710D) [µM]	IC50 (DP4 variant E206A) [µM]	IC50 (DP4 variant N710A) [µM]	IC50 (DP4 variant N710Q; read-out: IC50) [µM]	IC50 (DP4 variant N710Q; N710Q, 100 mM HEPES-buffer (pH 7.6), T = 30 °C, substrate Gly-Pro-AMC in the range of Km)
CC[C@H](C)[C@H](N)C(=O)N1CCC[C@H]1C(=O)N[C@H](C(=O)O)[C@@H](C)CC [Diprotin A, Ile-Pro-Ile]	1400	400	65	2.2	1100	> 10000	> 10000	5100	–
CC(C)C[C@H](NC(=O)[C@@H]1CCCN1C(=O)[C@@H](N)C(C)C)C(=O)O [Diprotin B, Val-Pro-Leu]	4100	200	100	37	2800	> 10000	> 10000	–	No inhibition
